# The list shows a part of the results, in another mix than the full data. Activity calls are given as the source filed them. Cut-off read from the data, not from the text of the source: active = inhibition above about 36%; inactive = the rest.
# Chains of the proteins cited; added tags and fusions are not shown.
# UniProt P61081, whole entry, looked up: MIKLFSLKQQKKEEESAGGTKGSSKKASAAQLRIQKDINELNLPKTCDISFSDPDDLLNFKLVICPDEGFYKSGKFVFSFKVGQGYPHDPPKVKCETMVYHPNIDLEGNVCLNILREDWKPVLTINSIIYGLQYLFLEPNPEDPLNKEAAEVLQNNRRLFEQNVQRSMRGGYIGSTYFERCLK
# UniProt Q13564, whole entry, looked up: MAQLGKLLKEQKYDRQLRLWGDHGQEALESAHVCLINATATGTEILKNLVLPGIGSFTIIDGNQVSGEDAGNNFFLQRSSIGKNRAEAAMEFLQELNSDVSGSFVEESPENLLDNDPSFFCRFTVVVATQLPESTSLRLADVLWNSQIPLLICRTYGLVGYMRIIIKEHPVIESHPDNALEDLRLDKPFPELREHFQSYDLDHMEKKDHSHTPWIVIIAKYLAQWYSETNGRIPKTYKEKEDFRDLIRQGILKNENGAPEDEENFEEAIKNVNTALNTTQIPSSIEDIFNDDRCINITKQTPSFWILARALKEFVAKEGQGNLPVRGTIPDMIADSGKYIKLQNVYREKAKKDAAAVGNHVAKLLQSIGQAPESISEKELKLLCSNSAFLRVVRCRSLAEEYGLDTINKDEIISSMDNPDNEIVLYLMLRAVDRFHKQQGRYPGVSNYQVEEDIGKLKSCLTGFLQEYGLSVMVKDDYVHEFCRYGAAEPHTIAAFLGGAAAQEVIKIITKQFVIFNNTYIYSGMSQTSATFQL
# Target: NEDD8-conjugating enzyme Ubc12 (Homo sapiens) + NEDD8-activating enzyme E1 regulatory subunit (Homo sapiens) (UniProt P61081+Q13564)
# Assay: inhibitors of cullin neddylation, primary screen, biochemical, TR-FRET, uHTS, NAE and Ubc12 (AID 651699)
# Settings: at 25 µM, active compounds read high
row,Structure (SMILES),inhibition
1,O=[N+]([O-])c1cc([N+](=O)[O-])c(O)c([N+](=O)[O-])c1.c1ccc(Oc2ccncc2)cc1,inactive: -36.3%
2,CCOC(=O)c1ccc(NP(C)(=O)Oc2ccc(OC)cc2)cc1 (configuration not stated),inactive: 5.15%
3,CCOP(C)(=S)SCC(=O)NC(C)C(=O)O (configuration not stated),inactive: -3.65%
4,CP(=O)(Nc1ccccn1)Oc1ccc(Cl)cc1 (configuration not stated),inactive: 7.75%
5,CP(=O)(Oc1ccccc1)OC(c1ccccc1)C(F)(F)F (configuration not stated),inactive: 6.07%
6,CP(=O)(Nc1ccc(SC(F)(F)F)cc1)Oc1ccc(Cl)cc1 (configuration not stated),inactive: -0.04%
7,Cc1cccc(C)c1OP(C)(=O)Nc1ccc(SC(F)(F)F)cc1 (configuration not stated),inactive: 1.45%
8,Cc1ccc(Nc2c([N+](=O)[O-])cc([N+](=O)[O-])cc2[N+](=O)[O-])cc1,inactive: -42.2%
9,Cc1cc(C)cc(OP(C)(=O)Nc2ccc(SC(F)(F)F)cc2)c1 (configuration not stated),inactive: -2.78%
10,CP(=O)(NC(=O)Nc1ccccc1)Oc1ccccc1 (configuration not stated),inactive: 7.01%
11,CCc1ccc(OP(C)(=O)N2CCN(c3ccc([N+](=O)[O-])cc3)CC2)cc1 (configuration not stated),inactive: -31.6%
12,CP(=S)(Nn1cnnc1)Oc1ccccc1 (configuration not stated),inactive: 7.36%
13,CP(=O)(Nc1ccccc1Br)Oc1ccccc1 (configuration not stated),inactive: 0.52%
14,COc1ccccc1OP(C)(=O)Nc1ccccc1 (configuration not stated),inactive: 2.6%
15,Cc1ccc(NP(C)(=O)Oc2ccccc2)c(C)c1 (configuration not stated),inactive: 0.97%
16,COc1ccccc1OP(C)(=O)Nc1ccc(C)cc1 (configuration not stated),inactive: 1.53%
17,CCOC(=O)c1ccc(NP(C)(=O)Oc2ccccc2)cc1 (configuration not stated),inactive: -3.45%
18,Cc1cc(C)cc(OP(C)(N)=O)c1 (configuration not stated),inactive: 0.44%
19,COc1ccc(OP(C)(=O)Nc2cccc(F)c2)cc1 (configuration not stated),inactive: 4.29%
20,COc1ccccc1OP(C)(=O)Nc1cc(Cl)ccc1C (configuration not stated),inactive: -3.2%
21,O=[N+]([O-])c1cc([N+](=O)[O-])c(Nc2cccnc2)c([N+](=O)[O-])c1,inactive: -39.1%
22,O=[N+]([O-])c1ccc2c(c1)C=Nc1ccccc1O2,inactive: -14.1%
23,Cc1cccc(C)c1OP(C)(N)=O (configuration not stated),inactive: -2.41%
24,CC(C)(C)c1ccc(OP(C)(=O)Nc2ccc(SC(F)(F)F)cc2)cc1 (configuration not stated),inactive: -0.06%
25,COc1ccccc1-c1ccccn1.O=[N+]([O-])c1cc([N+](=O)[O-])c(O)c([N+](=O)[O-])c1,inactive: -24.5%
26,CCN(CC)CCCOC(=O)C(O)(c1ccccc1)c1ccccc1,inactive: 0.17%
27,Cc1ccc(C)c(NP(C)(=O)Oc2ccccc2)c1 (configuration not stated),inactive: -1.96%
